Test [1] has as its target GppNHp-loaded KRAS4b (amino acids 1-169) G12C/C118S protein (Homo sapiens, UniProt P01116, C118S/G12C). The test can be described thus: Covalent cysteine 12 modification by MALDI-TOF MS, GppNHp-loaded KRAS G12C. In kind it is biochemical. The settings on record: 15 minutes reaction time, compound 95 or later using 1 μM proteins.
Test [2] concerns the target T1, GTP-loaded KRAS4b (amino acids 1-169) G12C/C118S protein (Homo sapiens, UniProt P01116, C118S/G12C).
T1 construct: KRAS4b (amino acids 1-169) G12C/C118S protein; made in house
Nature of the test: Covalent cysteine 12 modification by MALDI-TOF MS, GTP-loaded KRAS G12C. In kind it is biochemical. As to conditions: 15 minutes reaction time, compound 95 or later using 1 μM proteins.

The target of test [3] is GDP-loaded KRAS4b (amino acids 1-169) G12C/C118S protein (Homo sapiens, UniProt P01116, C118S/G12C). Nature of the test: Covalent cysteine 12 modification by MALDI-TOF MS, GDP-loaded KRAS G12C. The test is classed as biochemical. As to conditions: 15 minutes reaction time, compound 95 or later using 1 μM proteins.
The target in test [4] is Avi-KRAS G12C (1-169) GppNHp/RAF1 RBD-3xFLAG (52-151) (Homo sapiens, UniProt P01116, G12C). The test can be described thus: biochemical. As to conditions: Raf1-GppNHp-KRAS G12C disruption, Raf1 RBD-KRAS G12C-GppNHp disruption assay IC50.

As for `C=CC(=O)N1CCC(N(C)c2nc(OC[C@@H]3CC4(CC4)CN3C)nc3c(F)c(-c4ccc(F)c5sc(N)c(C#N)c45)c(C(F)(F)F)cc23)[C@H]1COC` (stereo partly shown) [Compound 456], the “GppNHp-KRAS G12C percent of modification” value in test [1] is reported as “A (percent of modification ≥70%)”. Further, the “GTP-KRAS G12C percent of modification” value in test [2] is “A (percent of modification ≥70%)”. In addition, in test [3], the “GDP-KRAS G12C percent of modification” value was “A (percent of modification ≥70%)”. The IC50 (in general, the concentration that inhibits the measured activity by half) in test [4] was under 500 nM.
As for `C=CC(=O)N1CCC(N(CC)c2nc(OC[C@@]34CCCN3C[C@H](F)C4)nc3c(C#N)c(-c4ccc(F)c5sc(N)c(C#N)c45)ccc23)[C@H]1COC` (stereo partly shown) [Compound 428], the “GppNHp-KRAS G12C percent of modification” value in test [1] was “B (50≤percent of modification <70%)”. In test [2], the “GTP-KRAS G12C percent of modification” value is on record as “C (10%≤percent of modification <50%)”. The “GDP-KRAS G12C percent of modification” value in test [3] is recorded as “A (percent of modification ≥70%)”. In test [4], this molecule gave a half-maximal inhibitory concentration (IC50) of under 500 nM.
For `C=CC(=O)N1CC[C@@H](N(CC)c2nc(OC[C@@]34CCCN3C[C@H](F)C4)nc3cc(-c4ccc(F)c5sc(N)c(C#N)c45)c(F)cc23)[C@H]1C` [Compound 414], in that order: “A (percent of modification ≥70%)”, “A (percent of modification ≥70%)”, “A (percent of modification ≥70%)” and under 500 nM.
For `C=CC(=O)N1C[C@H](N(C)c2nc(OC[C@@]34CCCN3C[C@H](F)C4)nc3c(F)c(-c4ccc(F)c5sc(N)nc45)c(C(F)(F)F)cc23)C[C@@H]1C` [Compound 293], in that order: “A (percent of modification ≥70%)”, “C (10%≤percent of modification <50%)”, “A (percent of modification ≥70%)” and under 500 nM.
The matching figures for `C=CC(=O)N1CCC(N(C)c2nc(OC[C@@H]3C[C@@H](F)CN3C)nc3cc(-c4ccc(F)c5sc(N)c(C#N)c45)c(C#N)cc23)[C@H]1COC` (stereo partly shown) [Compound 444]: “A (percent of modification ≥70%)”, “C (10%≤percent of modification <50%)”, “A (percent of modification ≥70%)” and under 500 nM.
On to `C=CC(=O)N1CC[C@@H](N(C)c2nc(OC[C@@]34CCCN3C[C@H](F)C4)nc3c(F)c(-c4ccc(F)c5oc(N)nc45)c(C(F)(F)F)cc23)C1` [Compound 275], for which the “GppNHp-KRAS G12C percent of modification” value in test [1] was “A (percent of modification ≥70%)”. Also, the “GTP-KRAS G12C percent of modification” value in test [2] is listed as “A (percent of modification ≥70%)”. Besides, the “GDP-KRAS G12C percent of modification” value in test [3] is “A (percent of modification ≥70%)”. This molecule also registered an IC50 in test [4] of under 500 nM.
Take `C=CC(=O)N1CCC(N(C)c2nc(OC[C@@H]3CCCN3C)nc3c(F)c(-c4ccc(F)c5sc(N)c(C#N)c45)ccc23)[C@H]1COC` (stereo partly shown) [Compound 432]: the “GppNHp-KRAS G12C percent of modification” value in test [1] is on record as “A (percent of modification ≥70%)”. The “GTP-KRAS G12C percent of modification” value in test [2] is “A (percent of modification ≥70%)”. Also, the “GDP-KRAS G12C percent of modification” value in test [3] was “A (percent of modification ≥70%)”. Also, the IC50 in test [4] is under 500 nM.
As for `C=CC(=O)N1CC[C@@H](N(C)c2nc(OC[C@@]34CCCN3C[C@H](F)C4)nc3c(F)c(-c4ccc(F)c5sc(C(F)F)nc45)c(C(F)(F)F)cc23)C1` [Compound 310], the “GppNHp-KRAS G12C percent of modification” value in test [1] is recorded as “D (percent of modification <10%)”. Further, the “GTP-KRAS G12C percent of modification” value in test [2] is on record as “D (percent of modification <10%)”. In test [3], the “GDP-KRAS G12C percent of modification” value is on record as “C (10%≤percent of modification <50%)”. In test [4], this molecule returned an IC50 of over 20000 nM.
For the molecule `C=CC(=O)N1CC[C@@H](N(C)c2nc(OC[C@]34CCCN3C[C@H](OC)C4)nc3c(F)c(-c4ccc(F)c5sc(N)nc45)c(C(F)(F)F)cc23)C1` (atropisomer, axis not shown) [Compound 277], in test [1], the “GppNHp-KRAS G12C percent of modification” value is on record as “A (percent of modification ≥70%)”. In test [2], the “GTP-KRAS G12C percent of modification” value is listed as “A (percent of modification ≥70%)”. The “GDP-KRAS G12C percent of modification” value in test [3] is “A (percent of modification ≥70%)”. This molecule displayed an IC50 in test [4] of under 500 nM.
For the molecule `C=CC(=O)N1C[C@H](C)N(c2nc(OC[C@@]34CCCN3C[C@H](F)C4)nc3c(F)c(-c4ccc(F)c5sc(N)c(C#N)c45)c(F)cc23)C[C@H]1C` [Compound 333], the “GppNHp-KRAS G12C percent of modification” value in test [1] was “A (percent of modification ≥70%)”. Moreover, the “GTP-KRAS G12C percent of modification” value in test [2] is “C (10%≤percent of modification <50%)”. In addition, in test [3], the “GDP-KRAS G12C percent of modification” value was “A (percent of modification ≥70%)”. Also, the IC50 in test [4] is under 500 nM.
Turning to `C=CC(=O)N1C[C@H](C)N(c2nc(OC)nc3c(F)c(-c4ccc(F)c5sc(N)c(C#N)c45)c(C(F)(F)F)cc23)C[C@H]1C` [Compound 385], in test [1], the “GppNHp-KRAS G12C percent of modification” value is “D (percent of modification <10%)”. Further, the “GTP-KRAS G12C percent of modification” value in test [2] is on record as “D (percent of modification <10%)”. In test [3], the “GDP-KRAS G12C percent of modification” value is “C (10%≤percent of modification <50%)”. This molecule also displayed an IC50 in test [4] of 500 to 5000 nM.
As for `C=CC(=O)N1C[C@@H](F)[C@@H](N(C)c2nc(OC[C@@H]3C[C@@H](F)CN3C)nc3cc(-c4ccc(F)c5sc(N)c(C#N)c45)c(C(F)(F)F)cc23)C1` [Compound 356], the “GppNHp-KRAS G12C percent of modification” value in test [1] is “A (percent of modification ≥70%)”. Moreover, in test [2], the “GTP-KRAS G12C percent of modification” value is listed as “B (50≤percent of modification <70%)”. Further, in test [3], the “GDP-KRAS G12C percent of modification” value is “A (percent of modification ≥70%)”. Also, the IC50 in test [4] is under 500 nM.
In the case of `C=CC(=O)N1C[C@@H](F)[C@@H](N(C)c2nc(OC[C@@]34CCCN3C[C@H](F)C4)nc3c(C#N)c(-c4ccc(F)c5sc(N)c(C#N)c45)c(Cl)cc23)C1` [Compound 379], in test [1], the “GppNHp-KRAS G12C percent of modification” value is recorded as “A (percent of modification ≥70%)”. In test [2], the “GTP-KRAS G12C percent of modification” value is on record as “A (percent of modification ≥70%)”. In addition, the “GDP-KRAS G12C percent of modification” value in test [3] is reported as “A (percent of modification ≥70%)”. Moreover, the IC50 in test [4] was under 500 nM.
Take `C=CC(=O)N1CC[C@H](N(C)c2nc(OC[C@@]34CCCN3C[C@H](F)C4)nc3c(F)c(-c4ccc(F)c5sc(N)c(C#N)c45)c(F)cc23)C1` [Compound 336]: the “GppNHp-KRAS G12C percent of modification” value in test [1] is listed as “D (percent of modification <10%)”. Besides, the “GTP-KRAS G12C percent of modification” value in test [2] was “D (percent of modification <10%)”. Moreover, the “GDP-KRAS G12C percent of modification” value in test [3] is on record as “D (percent of modification <10%)”. The molecule further displayed an IC50 in test [4] of 500 to 5000 nM.
Take `C=CC(=O)N1CC[C@@H](N(C)c2nc(OC[C@@]34CCCN3C[C@H](F)C4)nc3c(F)c(-c4ccc(F)c5sc(N)c(C#N)c45)c(C#N)cc23)C1` [Compound 325]: in test [1], the “GppNHp-KRAS G12C percent of modification” value is on record as “A (percent of modification ≥70%)”. Also, the “GTP-KRAS G12C percent of modification” value in test [2] was “A (percent of modification ≥70%)”. In addition, in test [3], the “GDP-KRAS G12C percent of modification” value is on record as “A (percent of modification ≥70%)”. The IC50 in test [4] is under 500 nM.
As for `C=CC(=O)N1C[C@@H](F)[C@@H](N(C)c2nc(OC[C@@H]3CC4(CC4)CN3C)nc3cc(-c4ccc(F)c5sc(N)nc45)c(C(F)(F)F)cc23)C1` [Compound 351], in test [1], the “GppNHp-KRAS G12C percent of modification” value is on record as “A (percent of modification ≥70%)”. Further, the “GTP-KRAS G12C percent of modification” value in test [2] is “A (percent of modification ≥70%)”. Besides, the “GDP-KRAS G12C percent of modification” value in test [3] is listed as “A (percent of modification ≥70%)”. In test [4], this molecule came in with a half-inhibitory concentration (IC50) of under 500 nM.

The values are drawn from patent US12528818B2, “Compositions and methods for inhibition of RAS” (Leidos Biomedical Research, Inc., priority 2021, dated 2026).
